Earlier results, collected in publication PMC10985906, “Anticholinesterase activities of novel isoindolin-1,3-dione-based acetohydrazide derivatives: design, synthesis, biological evaluation, molecular dynamic study” (BMC Chemistry, 2024).

By UniProt entry, the sequences of proteins in these tests, tags left out. Residues count along the entry.
UniProt P22303, 32-614 limits assumed: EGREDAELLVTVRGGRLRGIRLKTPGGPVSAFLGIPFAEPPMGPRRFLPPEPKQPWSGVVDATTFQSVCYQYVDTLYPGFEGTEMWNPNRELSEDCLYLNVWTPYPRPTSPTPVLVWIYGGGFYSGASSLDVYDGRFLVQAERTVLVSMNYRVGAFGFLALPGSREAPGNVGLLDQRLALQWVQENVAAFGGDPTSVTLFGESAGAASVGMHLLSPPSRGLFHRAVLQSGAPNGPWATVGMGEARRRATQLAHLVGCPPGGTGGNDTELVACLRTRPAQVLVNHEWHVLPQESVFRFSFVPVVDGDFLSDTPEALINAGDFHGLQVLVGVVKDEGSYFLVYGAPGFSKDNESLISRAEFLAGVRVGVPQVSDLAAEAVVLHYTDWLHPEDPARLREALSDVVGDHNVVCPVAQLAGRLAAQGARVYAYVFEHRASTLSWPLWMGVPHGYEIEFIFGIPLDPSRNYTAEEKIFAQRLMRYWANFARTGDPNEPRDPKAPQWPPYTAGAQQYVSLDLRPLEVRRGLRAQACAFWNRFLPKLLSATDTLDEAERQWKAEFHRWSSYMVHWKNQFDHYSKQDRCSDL

Target: AChE (Homo sapiens, UniProt P22303)
Settings: read-out: AChE IC50; previously reported; cited from earlier work

Cc1nn(CC(=O)N/N=C/c2ccccc2)c(=O)n1-c1ccc(C(=O)N/N=C/c2ccccc2)cc1
IC50: 46.5 nM
